Assay results reported in US20040014191A1, “Nitroreductase enzymes” (priority 1999, published 2004).

System: NADPH
Experiment: purified protein, by the assay type
Conditions: 37.0 °C
[1] = other: cofactor varied, Menadione (100 μM printed for NADPH)

## C. jejuni NfnB (Campylobacter jejuni subsp. jejuni NCTC 11168 = ATCC 700819)
other: 20 μM menadione, pH 7.0
  Km: 69.6 ± 8.8 μM μM

## H. influenzae NfnB (Haemophilus influenzae Rd KW20)
other: menadione 100 μM, pH 7.0
  Km: 2.9 ± 0.5 μM μM

## YdgI (Bacillus subtilis subsp. subtilis str. 168)
[1]
  Km: 295.0 ± 29 µM
  kcat: 96 s⁻¹
  kcat/Km: 300000 M⁻¹ s⁻¹
